Tested on: cultured chick sensory neurons from dorsal root ganglia
Experiment: Chick Dorsal Root Ganglion Cultures and Neurite Outgrowth
Format: cell-based
Procedure: Dorsal root ganglia were dissected from chick embryos of ten day gestation. Whole ganglion explants were cultured on thin layer Matrigel-coated 12 well plates with Liebovitz L15 plus high glucose media supplemented with 2 mM glutamine and 10% fetal calf serum, and also containing 10 μm cytosine β-D arabinofuranoside (Ara C) at 37° C. in an environment containing 5% CO2. Twenty-four hours later, the DRGs were treated with various concentrations of nerve growth factor, immunophilin ligands or combinations of NFG plus drugs. Forty-eight hours after drug treatment, the ganglia were visualized under phase contrast or Hoffman Modulation contrast with a Zeiss Axiovert inverted microscope. Photomicrographs of the explants were made, and neurite outgrowth was quantitated. Neurites longer than the ORG diameter were counted as positive, with total number of neurites quantitated per each experimental condition. Three to four DRGs are cultured per well, and each treatment was performed in duplicate.
Dose-response curves were generated from which ED50 values were obtained.

Measured: neurite outgrowth in sensory neurons (photomicrograph)

2-Phenyl-1-ethyl (2S)-1-(3,3-dimethyl-1,2-dioxopentyl)-2-pyrrolidinecarbothioate [Compound 9]
promoting neurite outgrowth: 10 pM | 1 nM | 100 nM

Source: patent publication US6984639B2, “Heterocyclic ketone and thioester compounds and uses” (GPI NIL Holdings, Inc., priority 1996, dated 2006)
